## Ab-14 heavy chain CDR variants: yeast mating affinities

Values reported by Engelhart et al. 2022, doi:10.1038/s41597-022-01779-4 (FLAb copy).

Binding partner: SARS-CoV-2 spike HR2 peptide, sequence PDVDLGDISGINAS.

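The parent was found by panning a naive human phage display library on the peptide. In library AAYL49, one, two or three CDR residues were substituted; doubles and triples were drawn at random. The scFvs were displayed on barcoded MATa yeast, the peptide on MATalpha yeast. The frequency of each diploid, read from paired DNA barcodes, reflects how well the two displayed proteins bind. The ratio of observed to expected reads was calibrated, replicate by replicate, on BCL2-family standards whose Kd was known from biolayer interferometry. Each pool was mated in three replicate cultures.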

Parent: Ab-14, a human scFv built as VH, the linker GGGGSGGGGSGGGGS, VL. Only the CDRs of the heavy chain vary.
VH: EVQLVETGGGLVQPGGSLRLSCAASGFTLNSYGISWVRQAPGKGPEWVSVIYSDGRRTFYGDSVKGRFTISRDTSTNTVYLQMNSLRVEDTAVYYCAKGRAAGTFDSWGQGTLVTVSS
VL: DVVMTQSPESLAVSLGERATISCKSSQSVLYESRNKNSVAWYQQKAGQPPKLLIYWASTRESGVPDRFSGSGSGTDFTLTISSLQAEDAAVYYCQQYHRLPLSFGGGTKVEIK

Each variant is given by its three heavy chain CDRs, as the data file delimits them; those of the parent are GFTLNSYGIS, VIYSDGRRTFYGDSVK, GRAAGTFDS.
Scale: log10 of Kd in nM, estimated from mating counts; low values are strong binders.
Averages over replicates are reported, and they cover detected replicates only.
An entry "nd" has no value in the source: the pair was not observed among the diploids in that replicate. This suggests poor binding but is not conclusive.
Three control strains display no target. For library AAYL49, 15% of the pairings with them gave a signal, with a median of 4.06 and one signal in twenty below 2.83, so weak values seen in few replicates may be background. The control count says in how many pairings with the empty strains this scFv gave a signal.
In this assay the parent's reference entry averaged 0.65; its copy inside this library read 4.11 (one replicate of three).

GFTLNAYGIS, VIYSDGRRTFYGDSVK, GRAVGTPDS: 0.76, 1.23, 1.58 (mean 1.19; controls 0 of 9).
GFTLNSYGIS, YIYSDGRRTFYCDSVK, GRAAGTFDS: nd, nd, nd (controls 2 of 9).
GFTLNSYGIS, VIYSDGRRTFYGDDVK, GRAAGPFAS: nd, nd, nd (controls 0 of 9).
GFTLNSYGIS, VIYSSGDRTFYGDSVK, GLAAGTFDS: nd, nd, nd (controls 0 of 9).
GFTLNSYGIS, VIYSDGRRTKYGDSVK, GYAAGTFDS: 2.71, 3.63, 3.07 (mean 3.14; controls 0 of 9).
GFTLNSYGIS, VIYNDGRPKFYGDSVK, GRAAGTFDS: nd, nd, nd (controls 0 of 9).
GFTLNSYGAS, FIYSDGRRTFYGDHVK, GRAAGTFDS: nd, nd, nd (controls 0 of 9).
GFALNSYGIS, VISSDGRRTFYGDSVK, YRAAGTFDS: nd, nd, nd (controls 0 of 9).
GFTLNSYGIS, VHYSDGRRTFYGDSVK, WRAAGTFCS: nd, nd, nd (controls 0 of 9).
GFTLNSTGIS, VIYSDGRRTQYGDSVK, FRAAGTFDS: nd, nd, nd (controls 0 of 9).
LFTLNSYGIS, SIYSDPRRTFYGDSVK, GRAAGTFDS: nd, nd, nd (controls 0 of 9).
GFTINSYGIS, IIYSDGRRTFYGDSVK, GRAAGGFDS: nd, nd, nd (controls 1 of 9).
GFDLNSYGIS, VIYSDGRRTFYGDSKK, SRAAGTFDS: nd, nd, nd (controls 0 of 9).
GFTYNSYGIS, VIYSDGRRTFYGVSVK, GRAAGTFDS: nd, nd, nd (controls 0 of 9).
GFTLNSYYIS, VIYSDGRRTFYGDSVK, GEAMGTFDS: nd, nd, nd (controls 5 of 9).
EFTLNSYGIS, VLYSDGRRTFYGDDVK, GRAAGTFDS: 2.30, 1.17, 1.59 (mean 1.69; controls 1 of 9).
GFTLSSYGIS, VIPSDGRRTFYGDSVK, GMAAGTFDS: 2.80, nd, nd (controls 1 of 9).
GFTLNSYGIS, VFYSDGGRTFYGDSVK, GRAAGTFDS: nd, nd, nd (controls 3 of 9).
GFTLNSYGIS, VIYSDGRRTFYGISVN, GRGAGTFDS: nd, nd, nd (controls 0 of 9).
GFTLNSYGIS, VIYSDGRRTFYGASVK, GRAAVTFTS: 2.15, 2.18, 2.08 (mean 2.14; controls 0 of 9).
GFTLNSYGIW, VIYSDGRYTFYGDSVK, GRAAGHFDS: nd, nd, nd (controls 1 of 9).
GFTLNSYGIS, VIYSDGRRTFYGDSVK, YRAAGTFGS: nd, nd, nd (controls 0 of 9).
GFTLNSYGIS, VIYSDGRWTFNGDSVK, GRAAGTFDC: nd, 3.48, nd (controls 2 of 9).
GFTLNSYGIS, NIYSDGIRTFDGDSVK, GRAAGTFDS: nd, nd, 4.41 (controls 1 of 9).
GFWNNSYGIS, VIYSDGRRTFYCDSVK, GRAAGTFDS: 3.40, 3.46, nd (mean 3.43; controls 1 of 9).
GFTLNSYGYS, VIYSDGRRTFYGDSVL, GRAAGTFQS: nd, nd, nd (controls 1 of 9).
GFTLNSYKIS, VHYSDGRRTFYGDSVK, GRANGTFDS: nd, nd, nd (controls 0 of 9).
GFTYNSYGIS, VIYSDGRRTFNGDSVK, GRAAGTSDS: 3.68, nd, nd (controls 1 of 9).
GPTLNSYGIS, VIYSDGRRTFYGDSVK, GRAAGTTDS: 3.25, nd, nd (controls 4 of 9).
KFTINSYGIS, VIYSDGRRTFYGDSVK, GRAAGIFDS: 1.95, 1.91, 2.01 (mean 1.96; controls 5 of 9).
GFGLNSYYIS, VIYSDMRRTFYGDSVK, GRAAGTFDS: 3.75, 4.20, nd (mean 3.98; controls 3 of 9).
GFTLNSYGIS, VIYSDGRRTFYCDHVK, GRAAWTFDS: nd, nd, nd (controls 2 of 9).
GFTLNHYGIS, VIYSDGRRTFYGDSVK, GHAAGTFQS: 1.30, 1.48, 1.55 (mean 1.45; controls 0 of 9).
HFTLNSYGIS, NIYSDGRRTFYGDSVK, GRYAGTFDS: nd, 5.55, nd (controls 3 of 9).
GFTLNSYGSS, VIYSDGRRTFYGDSVK, QRAAGTYDS: nd, nd, nd (controls 0 of 9).
GFTLYSYGIS, VIYMDGRRTFYGDSVK, GRAAGTFDS: nd, nd, nd (controls 1 of 9).
GFTLNSYGIP, VIYSDGMRPFYGDSVK, GRAAGTFDS: nd, nd, nd (controls 3 of 9).
GFTLNSYGIS, VIYSDGRRTFYTDSVK, GRWAGTFVS: nd, nd, nd (controls 0 of 9).

The 5 strongest on average among those seen in every replicate, once more:

{"CDR-H1": "GFTLNAYGIS", "CDR-H2": "VIYSDGRRTFYGDSVK", "CDR-H3": "GRAVGTPDS", "replicates, log10 nM": "0.76, 1.23, 1.58", "log10 Kd (nM), mean": "1.19", "control signals": "0/9"}
{"CDR-H1": "GFTLNHYGIS", "CDR-H2": "VIYSDGRRTFYGDSVK", "CDR-H3": "GHAAGTFQS", "replicates, log10 nM": "1.30, 1.48, 1.55", "log10 Kd (nM), mean": "1.45", "control signals": "0/9"}
{"CDR-H1": "EFTLNSYGIS", "CDR-H2": "VLYSDGRRTFYGDDVK", "CDR-H3": "GRAAGTFDS", "replicates, log10 nM": "2.30, 1.17, 1.59", "log10 Kd (nM), mean": "1.69", "control signals": "1/9"}
{"CDR-H1": "KFTINSYGIS", "CDR-H2": "VIYSDGRRTFYGDSVK", "CDR-H3": "GRAAGIFDS", "replicates, log10 nM": "1.95, 1.91, 2.01", "log10 Kd (nM), mean": "1.96", "control signals": "5/9"}
{"CDR-H1": "GFTLNSYGIS", "CDR-H2": "VIYSDGRRTFYGASVK", "CDR-H3": "GRAAVTFTS", "replicates, log10 nM": "2.15, 2.18, 2.08", "log10 Kd (nM), mean": "2.14", "control signals": "0/9"}